Holding throughout (type): cell-based
Assay [1] addresses Toll-like receptor 1/2 (Homo sapiens) (UniProt O60603+Q15399). The assay can be described thus: Antagonist activity at TLR2/1 in HEK-Blue hTLR2-TLR1 cells assessed as inhibition of Pam3CSK4 induced NF-kappaB activation at 10 uM preincubated with compound for 1 hrs followed by Pam3CSK4 addition and measured after 24 hrs by Quanti-blue reagent based SEAP reporter assay. For orientation: In a reporter assay the amount or activity of a reporter protein is the signal.

Chains of the proteins cited; added tags and fusions are not shown. Lines headed by an entry give the natural chain unless they say otherwise; changes in a name come on top.
UniProt O60603: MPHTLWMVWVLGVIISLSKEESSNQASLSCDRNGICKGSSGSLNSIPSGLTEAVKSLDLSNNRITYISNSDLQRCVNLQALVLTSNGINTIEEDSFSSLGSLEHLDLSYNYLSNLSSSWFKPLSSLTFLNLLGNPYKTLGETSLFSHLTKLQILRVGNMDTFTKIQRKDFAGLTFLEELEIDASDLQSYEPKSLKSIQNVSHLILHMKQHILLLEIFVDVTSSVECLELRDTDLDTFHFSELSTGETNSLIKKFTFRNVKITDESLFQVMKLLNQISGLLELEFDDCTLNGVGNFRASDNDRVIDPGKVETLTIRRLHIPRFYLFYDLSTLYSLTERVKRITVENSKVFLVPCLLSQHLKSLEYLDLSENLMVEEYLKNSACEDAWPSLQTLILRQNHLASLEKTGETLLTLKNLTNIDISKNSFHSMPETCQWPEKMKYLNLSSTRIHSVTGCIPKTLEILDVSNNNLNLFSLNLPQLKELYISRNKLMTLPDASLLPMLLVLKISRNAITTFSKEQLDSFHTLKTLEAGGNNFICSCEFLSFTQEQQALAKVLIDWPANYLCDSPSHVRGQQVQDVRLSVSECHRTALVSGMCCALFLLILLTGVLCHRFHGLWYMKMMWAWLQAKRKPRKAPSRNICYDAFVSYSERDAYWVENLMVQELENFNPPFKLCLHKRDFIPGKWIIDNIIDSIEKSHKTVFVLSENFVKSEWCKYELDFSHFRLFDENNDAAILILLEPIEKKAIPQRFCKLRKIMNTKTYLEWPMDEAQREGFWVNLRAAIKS
UniProt Q15399: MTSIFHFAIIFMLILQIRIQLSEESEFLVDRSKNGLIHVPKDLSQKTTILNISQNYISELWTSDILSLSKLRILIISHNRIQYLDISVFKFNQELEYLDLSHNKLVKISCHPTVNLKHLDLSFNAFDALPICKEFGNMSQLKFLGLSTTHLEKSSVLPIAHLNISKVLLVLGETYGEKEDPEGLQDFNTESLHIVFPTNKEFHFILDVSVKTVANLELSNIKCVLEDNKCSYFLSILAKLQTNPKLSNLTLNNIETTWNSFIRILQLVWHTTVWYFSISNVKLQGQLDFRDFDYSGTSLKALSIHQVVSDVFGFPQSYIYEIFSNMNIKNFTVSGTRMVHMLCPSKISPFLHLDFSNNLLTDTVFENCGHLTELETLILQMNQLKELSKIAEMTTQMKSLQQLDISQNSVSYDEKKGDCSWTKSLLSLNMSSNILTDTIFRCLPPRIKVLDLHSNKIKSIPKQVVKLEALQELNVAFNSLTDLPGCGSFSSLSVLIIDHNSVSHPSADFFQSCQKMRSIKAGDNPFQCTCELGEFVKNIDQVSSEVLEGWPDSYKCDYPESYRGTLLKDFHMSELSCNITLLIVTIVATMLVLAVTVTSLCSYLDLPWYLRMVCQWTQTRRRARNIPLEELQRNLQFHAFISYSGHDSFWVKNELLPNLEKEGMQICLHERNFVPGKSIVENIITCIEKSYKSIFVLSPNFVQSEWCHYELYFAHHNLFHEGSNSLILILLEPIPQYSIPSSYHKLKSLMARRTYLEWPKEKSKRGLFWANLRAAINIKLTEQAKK
UniProt Q9Y2C9: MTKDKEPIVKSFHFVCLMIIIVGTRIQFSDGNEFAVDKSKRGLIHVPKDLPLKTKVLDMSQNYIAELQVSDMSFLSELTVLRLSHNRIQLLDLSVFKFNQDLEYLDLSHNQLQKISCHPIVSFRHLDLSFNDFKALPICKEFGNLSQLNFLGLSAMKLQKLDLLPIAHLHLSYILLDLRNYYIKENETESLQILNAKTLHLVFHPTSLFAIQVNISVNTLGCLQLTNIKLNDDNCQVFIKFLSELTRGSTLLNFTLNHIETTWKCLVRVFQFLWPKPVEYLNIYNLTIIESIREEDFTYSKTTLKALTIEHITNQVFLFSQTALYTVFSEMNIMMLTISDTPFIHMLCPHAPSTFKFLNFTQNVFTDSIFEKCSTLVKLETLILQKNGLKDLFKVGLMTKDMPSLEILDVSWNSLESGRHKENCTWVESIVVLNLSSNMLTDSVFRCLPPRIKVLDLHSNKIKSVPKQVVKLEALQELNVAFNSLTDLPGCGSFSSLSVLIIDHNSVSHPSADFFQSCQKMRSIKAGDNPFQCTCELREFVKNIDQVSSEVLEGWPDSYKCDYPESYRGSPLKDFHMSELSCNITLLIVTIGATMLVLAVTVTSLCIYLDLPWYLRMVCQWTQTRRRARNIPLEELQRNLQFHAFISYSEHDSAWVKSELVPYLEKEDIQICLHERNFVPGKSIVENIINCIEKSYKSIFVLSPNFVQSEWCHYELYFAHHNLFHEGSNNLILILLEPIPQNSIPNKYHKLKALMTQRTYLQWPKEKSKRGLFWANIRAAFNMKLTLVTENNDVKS
UniProt O60602, whole entry: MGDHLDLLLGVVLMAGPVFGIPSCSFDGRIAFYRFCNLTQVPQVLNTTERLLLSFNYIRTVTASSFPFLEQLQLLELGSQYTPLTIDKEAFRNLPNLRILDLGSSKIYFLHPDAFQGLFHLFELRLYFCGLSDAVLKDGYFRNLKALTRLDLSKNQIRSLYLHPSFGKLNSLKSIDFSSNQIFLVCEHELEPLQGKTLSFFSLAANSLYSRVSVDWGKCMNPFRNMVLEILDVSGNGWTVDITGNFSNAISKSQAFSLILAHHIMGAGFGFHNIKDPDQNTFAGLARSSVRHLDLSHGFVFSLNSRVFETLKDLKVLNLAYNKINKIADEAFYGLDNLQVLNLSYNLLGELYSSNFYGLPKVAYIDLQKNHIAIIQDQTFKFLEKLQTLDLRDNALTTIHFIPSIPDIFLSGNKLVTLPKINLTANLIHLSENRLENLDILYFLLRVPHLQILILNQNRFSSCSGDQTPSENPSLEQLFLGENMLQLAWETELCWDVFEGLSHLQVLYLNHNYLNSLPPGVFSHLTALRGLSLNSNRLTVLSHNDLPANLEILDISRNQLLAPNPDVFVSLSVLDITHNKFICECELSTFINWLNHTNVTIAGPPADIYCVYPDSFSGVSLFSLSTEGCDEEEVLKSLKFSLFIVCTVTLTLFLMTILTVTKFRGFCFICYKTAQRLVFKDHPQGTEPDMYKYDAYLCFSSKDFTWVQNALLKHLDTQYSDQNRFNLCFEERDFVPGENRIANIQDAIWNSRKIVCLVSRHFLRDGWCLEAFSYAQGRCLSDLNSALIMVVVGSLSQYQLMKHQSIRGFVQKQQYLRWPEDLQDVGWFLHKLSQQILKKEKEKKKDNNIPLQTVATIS
UniProt Q04206, whole entry: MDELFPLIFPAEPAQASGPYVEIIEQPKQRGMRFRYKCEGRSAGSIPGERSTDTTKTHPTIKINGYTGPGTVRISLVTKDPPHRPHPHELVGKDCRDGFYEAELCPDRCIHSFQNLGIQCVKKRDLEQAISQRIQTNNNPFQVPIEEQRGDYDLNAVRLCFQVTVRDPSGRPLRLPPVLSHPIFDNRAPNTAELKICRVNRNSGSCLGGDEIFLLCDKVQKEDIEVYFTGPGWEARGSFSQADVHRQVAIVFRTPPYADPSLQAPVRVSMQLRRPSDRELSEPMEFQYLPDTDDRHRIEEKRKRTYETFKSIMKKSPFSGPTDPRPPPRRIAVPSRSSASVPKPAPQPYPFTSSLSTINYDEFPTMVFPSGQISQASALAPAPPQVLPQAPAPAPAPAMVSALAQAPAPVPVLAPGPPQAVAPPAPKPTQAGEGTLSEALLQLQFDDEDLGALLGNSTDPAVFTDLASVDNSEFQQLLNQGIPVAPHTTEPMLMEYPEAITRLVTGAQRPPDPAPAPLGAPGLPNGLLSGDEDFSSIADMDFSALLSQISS

The target of assay [2] is TLR2/TLR6 (Homo sapiens) (UniProt O60603+Q9Y2C9). In words: Antagonist activity at TLR2/6 in HEK-Blue hTLR2-TLR6 cells assessed as inhibition of Pam2CSK4 induced NF-kappaB activation at 10 uM preincubated with compound for 1 hrs followed by Pam2CSK4 addition and measured after 24 hrs by Quanti-blue reagent based SEAP reporter assay.
Assay [3] deals with T1, Toll-like receptor 3 (Homo sapiens) (UniProt O15455).
T1 sequence (whole entry): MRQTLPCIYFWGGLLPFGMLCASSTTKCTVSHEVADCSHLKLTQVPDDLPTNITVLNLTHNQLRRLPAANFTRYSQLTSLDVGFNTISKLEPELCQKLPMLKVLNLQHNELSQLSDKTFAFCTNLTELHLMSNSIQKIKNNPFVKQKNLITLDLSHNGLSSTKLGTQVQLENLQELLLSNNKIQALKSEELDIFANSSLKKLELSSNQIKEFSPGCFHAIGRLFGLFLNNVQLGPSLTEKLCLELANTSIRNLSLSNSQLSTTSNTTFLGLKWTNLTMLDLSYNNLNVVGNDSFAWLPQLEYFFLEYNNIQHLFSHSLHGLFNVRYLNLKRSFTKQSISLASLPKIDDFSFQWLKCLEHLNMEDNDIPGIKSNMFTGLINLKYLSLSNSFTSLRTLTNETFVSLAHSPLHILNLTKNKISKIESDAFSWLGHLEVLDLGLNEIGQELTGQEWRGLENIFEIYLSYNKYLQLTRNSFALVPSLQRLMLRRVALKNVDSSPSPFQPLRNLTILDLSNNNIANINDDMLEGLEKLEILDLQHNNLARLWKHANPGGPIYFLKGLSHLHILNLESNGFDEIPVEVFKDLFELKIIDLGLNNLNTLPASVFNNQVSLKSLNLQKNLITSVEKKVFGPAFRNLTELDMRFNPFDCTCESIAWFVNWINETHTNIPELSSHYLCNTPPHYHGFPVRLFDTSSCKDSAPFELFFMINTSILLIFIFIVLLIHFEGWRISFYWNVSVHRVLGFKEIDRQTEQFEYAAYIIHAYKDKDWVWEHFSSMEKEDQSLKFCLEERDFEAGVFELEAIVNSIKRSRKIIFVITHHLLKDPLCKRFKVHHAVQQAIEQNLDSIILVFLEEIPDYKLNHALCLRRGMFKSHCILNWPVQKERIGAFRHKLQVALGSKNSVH
In words: Antagonist activity at TLR3 in HEK-Blue hTLR3 cells assessed as inhibition of poly(I:C) induced NF-kappaB activation at 10 uM preincubated with compound for 1 hrs followed by poly(I:C) addition and measured after 24 hrs by Quanti-blue reagent based SEAP reporter assay relative to control.

Assay [4] addresses Toll-like receptor 5 (Homo sapiens) (UniProt O60602). In words: Antagonist activity at TLR5 in HEK-Blue hTLR5 cells assessed as inhibition of Bacillus subtilis flagellin-induced NF-kappaB activation at 10 uM preincubated with compound for 1 hrs followed by flagellin addition and measured after 24 hrs by Quanti-blue reagent based SEAP reporter assay relative to control.
Assay [5] concerns the target T2, Toll-like receptor 9 (Homo sapiens) (UniProt Q9NR96).
T2 sequence (whole entry): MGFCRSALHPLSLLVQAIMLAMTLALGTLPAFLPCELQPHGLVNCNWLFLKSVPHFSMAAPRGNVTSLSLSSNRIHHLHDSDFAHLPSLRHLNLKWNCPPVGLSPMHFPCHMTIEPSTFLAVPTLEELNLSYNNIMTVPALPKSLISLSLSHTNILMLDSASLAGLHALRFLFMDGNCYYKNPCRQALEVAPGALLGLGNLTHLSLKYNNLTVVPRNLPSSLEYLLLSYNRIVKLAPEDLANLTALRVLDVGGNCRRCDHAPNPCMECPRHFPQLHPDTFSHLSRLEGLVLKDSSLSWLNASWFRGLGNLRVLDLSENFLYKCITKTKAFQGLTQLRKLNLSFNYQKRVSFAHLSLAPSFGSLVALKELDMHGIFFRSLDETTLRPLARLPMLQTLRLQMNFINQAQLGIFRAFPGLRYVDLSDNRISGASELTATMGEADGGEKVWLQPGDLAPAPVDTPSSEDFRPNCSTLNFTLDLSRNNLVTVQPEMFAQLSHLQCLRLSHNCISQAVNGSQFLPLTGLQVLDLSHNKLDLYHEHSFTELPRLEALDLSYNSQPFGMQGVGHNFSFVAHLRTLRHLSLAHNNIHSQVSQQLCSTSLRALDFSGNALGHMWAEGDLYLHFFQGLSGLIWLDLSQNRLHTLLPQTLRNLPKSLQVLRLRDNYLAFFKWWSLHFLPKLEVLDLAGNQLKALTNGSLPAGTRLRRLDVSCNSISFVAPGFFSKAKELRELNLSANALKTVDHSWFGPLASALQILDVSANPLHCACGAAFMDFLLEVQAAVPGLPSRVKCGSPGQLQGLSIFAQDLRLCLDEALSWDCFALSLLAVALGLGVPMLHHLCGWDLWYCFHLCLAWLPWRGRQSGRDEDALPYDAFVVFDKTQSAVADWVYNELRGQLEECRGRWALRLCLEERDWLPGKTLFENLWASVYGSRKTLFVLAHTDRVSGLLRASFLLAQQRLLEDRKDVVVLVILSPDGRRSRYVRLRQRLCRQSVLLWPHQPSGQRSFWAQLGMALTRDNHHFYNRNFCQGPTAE
In words: Antagonist activity at TLR9 in HEK-Blue hTLR9 cells assessed as inhibition of ODN2006-induced NF-kappaB activation at 10 uM preincubated with compound for 1 hrs followed by ODN2006 addition and measured after 24 hrs by Quanti-blue reagent based SEAP reporter assay relative to control.

The target of assay [6] is Transcription factor p65 (Homo sapiens) (UniProt Q04206). The assay can be described thus: Inhibition of NF-kappaB p65 phosphorylation in TL8-506 induced human THP-1 cells at 10 uM preincubated with compound for 1 hrs followed by TL8-506 addition and measured after 15 mins by Western blot analysis.

Each structure is given as a SMILES string. Calls of active or inactive are those of the source. No cut-off for these calls is given here.

For one molecule, Activity and inhibition results are on record in ChEMBL document CHEMBL6153139, “Discovery of Novel Isoxazole-Based Small-Molecule Toll-Like Receptor 8 Antagonists” (J Med Chem, 2025).

Take `CCN1CCC(NC(=O)c2ccc(OCc3c(C)noc3C)c(OC)c2)CC1`: the result in assay [1], in assay [2], in assay [3], in assay [4] and in assay [5] was inactive. The inhibition entry in assay [6] was “Active”.
